Results taken from PubChem BioAssay (NCI).
Only a part is listed here, and it is no random draw. Some salts and complexes are drawn in separate pieces, as the source files them; their charges need not balance. Where a structure was tested more than once in an assay, its records may differ in their call. Calls of active or inactive are those of the source. Cut-off read from the data, not from the text of the source: active = growth inhibition above about 70%; inactive = the rest.

Assay: NCI Yeast Anticancer Drug Screen. Data for the rad50EPP+ strain (AID 151);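 note: 0% = growth of vehicle-treated control cultures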
Conditions: S. cerevisiae rad50 mutant strain, stronger effect = higher value
Method: Growth inhibition of yeast strains with defined genetic alterations is measured as a screen for potential anti-cancer activity. Selected strains with alterations in DNA damage repair or cell cycle control were exposed to compounds and growth inhibition was measured relative to vehicle treated controls. The strain used in this assay is rad50EPP+

In the case of Cc1c2ccccc2cc2ccccc12.O=[N+]([O-])c1cc([N+](=O)[O-])c(O)c([N+](=O)[O-])c1, the growth inhibition (at 1.2 µM) is reported as inactive: 2%, the growth inhibition (at 3.7 µM) is reported as inactive: 18% and the growth inhibition (at 11.0 µM) is reported as inactive: 68%. For the same compound, the growth inhibition (at 33.0 µM) was active: 93% and the growth inhibition (at 100.0 µM) was active: 96%.
In the case of Cc1cc2ccccc2cc1C.O=[N+]([O-])c1cc([N+](=O)[O-])cc([N+](=O)[O-])c1, the growth inhibition (at 1.2 µM) is reported as inactive: 4%, the growth inhibition (at 3.7 µM) is reported as inactive: 5% and the growth inhibition (at 11.0 µM) is reported as inactive: 13%. The growth inhibition (at 33.0 µM) was inactive: 34% and the growth inhibition (at 100.0 µM) was active: 94%.
In the case of Nc1ccccc1.O=[N+]([O-])c1cc([N+](=O)[O-])cc([N+](=O)[O-])c1, the growth inhibition (at 1.2 µM) is reported as inactive: -3%, the growth inhibition (at 3.7 µM) is reported as inactive: 19% and the growth inhibition (at 11.0 µM) is reported as active: 71%. The growth inhibition (at 33.0 µM) was active: 99% and the growth inhibition (at 100.0 µM) was active: 99%.
With Cc1ccc2ccc3ccc4ccccc4c3c2c1.O=C1c2cc([N+](=O)[O-])ccc2-c2c1cc([N+](=O)[O-])cc2[N+](=O)[O-] the growth inhibition (at 1.2 µM) was inactive: 1%, the growth inhibition (at 3.7 µM) was inactive: 6% and the growth inhibition (at 11.0 µM) was inactive: 14%. The growth inhibition (at 33.0 µM) was inactive: 23% and the growth inhibition (at 100.0 µM) was inactive: 40%.
For [Au+].[Au+].c1ccc([PH+](c2ccccc2)c2ccccc2)cc1.c1ccc([PH+](c2ccccc2)c2ccccc2)cc1.n1n[n-]c(-c2nnn[n-]2)n1, the growth inhibition (at 1.2 µM) was inactive: 6%, the growth inhibition (at 3.7 µM) was inactive: 55% and the growth inhibition (at 11.0 µM) was active: 98%. The growth inhibition (at 33.0 µM) was active: 98% and the growth inhibition (at 100.0 µM) was active: 98%.
In the case of [Au].[C-]#N.[C-]#N, the growth inhibition (at 1.2 µM) is reported as inactive: 5%, the growth inhibition (at 3.7 µM) is reported as inactive: 14% and the growth inhibition (at 11.0 µM) is reported as inactive: 13%. For the same compound, the growth inhibition (at 33.0 µM) was inactive: 32% and the growth inhibition (at 100.0 µM) was inactive: 53%.
With COc1ccccc1N.O=[N+]([O-])c1cc([N+](=O)[O-])cc([N+](=O)[O-])c1 the growth inhibition (at 1.2 µM) was inactive: 0%, the growth inhibition (at 3.7 µM) was inactive: 14% and the growth inhibition (at 11.0 µM) was active: 77%. The growth inhibition (at 33.0 µM) was active: 99% and the growth inhibition (at 100.0 µM) was active: 99%.
With [Au+].[N-]=[N+]=N.c1ccc([PH+](c2ccccc2)c2ccccc2)cc1 the growth inhibition (at 1.2 µM) was inactive: 33%, the growth inhibition (at 3.7 µM) was active: 97% and the growth inhibition (at 11.0 µM) was active: 97%. For the same compound, the growth inhibition (at 33.0 µM) was active: 92% and the growth inhibition (at 100.0 µM) was active: 87%.
